# AlphaSeq binding of Ab-14 light chain variants to a spike HR2 peptide

Source: Engelhart et al. 2022 (doi:10.1038/s41597-022-01779-4), MIT Lincoln Laboratory and A-Alpha Bio; data file from the FLAb repository.

Target peptide (SARS-CoV-2 spike, HR2 region): PDVDLGDISGINAS

Ab-14 is the parent antibody, in scFv form: VH, then three GGGGS repeats, then VL. The heavy chain is unchanged in all variants.
VH: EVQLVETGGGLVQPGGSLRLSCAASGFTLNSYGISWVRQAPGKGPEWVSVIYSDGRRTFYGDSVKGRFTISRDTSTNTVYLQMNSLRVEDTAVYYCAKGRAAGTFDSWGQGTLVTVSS
VL: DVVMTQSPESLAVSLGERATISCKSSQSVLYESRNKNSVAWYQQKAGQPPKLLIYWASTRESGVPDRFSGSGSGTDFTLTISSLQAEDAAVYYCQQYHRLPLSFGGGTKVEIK

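The parent was found by panning a naive human phage display library on the peptide. Library AAYL50 holds single substitutions and randomly drawn double and triple substitutions in the CDRs. The assay is AlphaSeq: two haploid yeast populations carry antibody and antigen on their surface. Mating (16 h, 30 °C) was followed by selection of diploids and sequencing of their barcodes. A regression on co-assayed BCL2-family reference pairs converts the normalised counts of each replicate to an apparent Kd. Mating was done three times.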

Substitutions are numbered in sequence along the VL above, starting at 1 (not Kabat).
Numbers give log10(Kd / nM), so 0 is 1 nM and 3 is 1 µM. Smaller is tighter.
An entry "n.d." has no value in the source: the pair was not observed among the diploids in that replicate. This suggests poor binding but is not conclusive.
Nonspecific signal, from three strains lacking the peptide, appeared in 18% of pairings of library AAYL50, centred on 4.19 (5% of these signals below 2.99); values are not corrected for it. For each scFv, signals with the empty controls are counted beside the result, with their mean in brackets.

changes	log10 Kd (nM) by replicate	control signals
S28F+T59N+Y97E	n.d. n.d. n.d.	0/9
R34H+R99N+P101W	n.d. 5.65 5.75	5/9 (4.74)
K24D+S33C+T59L	n.d. n.d. n.d.	0/9
R34G+S62C+Q95G	3.06 3.56 3.51	3/9 (4.70)
S28N+V39A+S62P	4.47 n.d. 6.34	6/9 (4.85)
E32T+N37E+S58D	1.22 1.33 1.38	3/9 (4.34)
V29N+E32A+R34M	0.69 0.83 0.81	1/9 (5.34)
S28A+S33W+Q96C	n.d. n.d. n.d.	1/9 (3.41)
T59Y+R99S	n.d. n.d. n.d.	0/9
S25E+E61N+H98I	2.76 2.74 2.97	3/9 (4.70)
K36S+R99N+L102V	3.54 3.27 3.46	5/9 (4.96)
Q27Y+S38E+S103E	n.d. n.d. 2.27	0/9
Y31G+V39S+R99M	3.84 n.d. n.d.	2/9 (3.80)
E61D+S62Y+L102V	n.d. n.d. 3.87	3/9 (3.07)
A57I+Y97C+P101Y	n.d. n.d. 4.61	2/9 (4.78)
K24Q+R99G+P101S	0.92 1.10 0.72	0/9
S26A+S38M	2.95 2.89 n.d.	2/9 (4.26)
S33R+N37Q+L100Q	n.d. n.d. 5.91	3/9 (3.94)
R60H+Y97T	5.60 3.76 n.d.	0/9
V29T+E61P+L102K	n.d. n.d. 3.75	5/9 (4.01)
S58W+E61D	1.79 1.71 1.91	2/9 (4.09)
S33E+R34I+A40T	n.d. n.d. n.d.	0/9
T59I+R60K+H98D	1.41 1.53 1.43	5/9 (4.89)
Q27M+P101D+S103N	4.87 4.00 n.d.	1/9 (4.59)
W56M+Q95R+Q96H	0.79 0.82 0.92	3/9 (4.08)
S28F+A57M+L102A	n.d. 3.86 n.d.	4/9 (4.15)
S25E+V39T+P101V	n.d. n.d. n.d.	0/9
V29S+L30R+S38T	4.04 4.51 5.99	3/9 (4.66)
V29Y+S62I+Q96C	1.23 1.36 1.34	3/9 (5.21)
V39K+R99Y	2.49 2.79 3.74	4/9 (4.12)
K24W+S28A+T59R	3.42 3.17 3.15	3/9 (4.50)
K36A+S62V+Q95K	1.20 1.21 1.50	3/9 (3.96)
S26K+A40D+P101A	4.84 4.45 n.d.	5/9 (3.99)
V29Q+N37R+W56F	1.52 1.73 1.78	6/9 (4.46)
V29M+L30Y+N35Y	2.11 2.31 2.53	4/9 (4.64)
S28T+L30G+S38V	n.d. n.d. n.d.	1/9 (2.38)
S25C+S62D+Q96S	0.04 0.37 0.18	5/9 (4.77)